Results reported in PubChem BioAssay AID1490 (National Center for Advancing Translational Sciences (NCATS), 2009).
The list shows a part of the results, in another mix than the full data. Results filed as inconclusive are left out. Some salts and complexes are drawn in separate pieces, as the source files them; their charges need not balance. Calls of active or inactive are those of the source. Calls follow the shape of the dose curve; as a rule, active = well fitted inhibition curve with a large enough effect; inconclusive = small, poorly fitted or top-dose-only effect, or another doubt; inactive = no such curve, though single readings can be large or run the other way.

molecular target: 4'-phosphopantetheinyl transferase ffp (Bacillus subtilis) (UniProt Q9F4F7); assay: qHTS Assay for Inhibitors of Bacillus subtilis Sfp phosphopantetheinyl transferase (PPTase); conditions: Biochemical Sfp PPTase activity;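 also: the enzyme is Sfp with the accession as filed and its product quenches rhodamine fluorescence; 0% = enzyme reaction without inhibitor and -100% = no enzyme wells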

O=[N+]([O-])c1cc([N+](=O)[O-])c(NCC2CCS(=O)(=O)C2)c([N+](=O)[O-])c1 (configuration not stated) was tested. Which largest response in the series, negative = inhibition did it give?
Its largest response in the series, negative = inhibition is inactive: -20.8%.

How did the largest response in the series, negative = inhibition turn out when COc1ccc2c(c1O)-c1c(O)c(OC)cc3c1[C@H](C2)[N+](C)(C)CC3.O=[N+]([O-])c1cc([N+](=O)[O-])c([O-])c([N+](=O)[O-])c1[O-] was run?
The largest response in the series, negative = inhibition was inactive: 0.668%.

For O=C(OC1CN2CCC1CC2)c1ccc([N+](=O)[O-])cc1 (configuration not stated), which largest response in the series, negative = inhibition is on record?
The largest response in the series, negative = inhibition was inactive: -1.96%.

O=[N+]([O-])c1cc([N+](=O)[O-])c(OC2CCCCC2O)c([N+](=O)[O-])c1 (configuration not stated) was tested. Which largest response in the series, negative = inhibition did it give?
Its largest response in the series, negative = inhibition is inactive: -4.86%.

How did the largest response in the series, negative = inhibition turn out when O=C(O)c1cccc(Nc2c([N+](=O)[O-])cc([N+](=O)[O-])cc2[N+](=O)[O-])c1 was run?
Its largest response in the series, negative = inhibition is inactive: 0.167%.

N/C(=N\O)c1c(N)no[n+]1[O-] was tested. Which largest response in the series, negative = inhibition did it give?
The largest response in the series, negative = inhibition was inactive: 0.852%.

CCOC(=O)C(CC)C1=NC(C)(C)Cc2ccccc21.O=[N+]([O-])c1cc([N+](=O)[O-])c(O)c([N+](=O)[O-])c1 (configuration not stated) was tested. Which largest response in the series, negative = inhibition did it give?
The largest response in the series, negative = inhibition was inactive: 13.7%.
